Results as given in patent US20070255041A1, “Bioengineered Vehicles for Targeted Nucleic Acid Delivery” (priority 2000, published 2007).

Key:
SK-OV-3 cells = test: pGeneGrip Rhodamine/GFP plasmid delivery, fluorescent microscopy, erbB-2 positive cells; assay type: cell-based, human; conditions: SK-OV-3, 48 hour time point; FIG. 21
Text: pGeneGrip Rhodamine/GFP plasmid (Gene Therapy Systems) was used as another reporter plasmid for studying C6.5 sFv′-SP and C6ML3-9 sFv′-SP-mediated gene delivery. In this case, plasmid DNA encoding green fluorescent protein (GFP) was labeled with rhodamine, which allows one to follow internalization of the plasmid DNA as well as the expression of GFP. This reporter facilitated evaluation of the gene delivery efficiency at both DNA and protein expression levels. The formation of protein/DNA complexes between either C6.5 sFv′-SP or C6ML3-9 sFv′-SP and pGeneGrip plasmid DNA were confirmed by gel mobility shift analysis (data not shown). SK-OV-3 and MCF-7 cells were incubated with the protein/DNA complexes and fixed at 6, 24, 48, and 72 hours post-incubation for fluorescent microscopy. FIG. 21 represents the data from the 48 hour time point. […] The rhodamine labeled DNA could be seen inside of SK-OV-3 cells at 24 hours (data not shown). However, the GFP gene expression, was very low, about 1-2% cells being GFP positive in the case of C6ML3-9 sFv′-SP-mediated delivery at 48 hours. It should be noted that, although low, GFP expression level still correlates with the amount of DNA inside of the cells (FIG. 21, compare C6.5 sFv′-SP-DNA with that C6ML3-9 sFv′-SP-DNA). […]

[1] = test system: plasmid DNA (pGL-control or pXL3031); test: Gel mobility shift analysis of complex formation with plasmid DNA; assay type: binding; conditions: 2.9 pmole (about 90 ng) conjugate, 200 ng plasmid DNA; FIG. 17
Description: The ability of the anti-erbB-2 C6ML3-9 sFv′-salmone protamine (SP) conjugates to complex with plasmid DNA was tested by a gel mobility shift analysis.
The DNA was added last, and the mixture incubated on ice for 1 to 1.5 hour (in the case of kinetics studies, incubation time was from 5 minutes to 60 minutes as indicated). 2 μl of loading buffer (50% glycerol in 1×TE with dye) was added to the 20 μl reaction. The reaction was electrophoresed on 0.8% agarose gel in 1×TAE, 150 V for about an hour at room temperature and stained with EtBr overnight.

C6ML3-9 sFv′-SP: C6ML3-9 sFv′ coupled via Sulfo-SMCC at its C-terminal sulfhydryl to salmon protamine
gene delivery efficiency at the DNA level (rhodamine-labeled plasmid) (SK-OV-3 cells): over 80% | retardation of plasmid DNA band (gel shift) [1]: retardation of the plasmid DNA (200 ng) band was observed
